Source: ChEMBL document CHEMBL5143673, “The evaluation of N-propargylamine-2-aminotetralin as an inhibitor of monoamine oxidase” (Bioorg Med Chem Lett, 2022)

By UniProt entry, the sequences of proteins in these tests, tags left out.
UniProt P21397, whole entry: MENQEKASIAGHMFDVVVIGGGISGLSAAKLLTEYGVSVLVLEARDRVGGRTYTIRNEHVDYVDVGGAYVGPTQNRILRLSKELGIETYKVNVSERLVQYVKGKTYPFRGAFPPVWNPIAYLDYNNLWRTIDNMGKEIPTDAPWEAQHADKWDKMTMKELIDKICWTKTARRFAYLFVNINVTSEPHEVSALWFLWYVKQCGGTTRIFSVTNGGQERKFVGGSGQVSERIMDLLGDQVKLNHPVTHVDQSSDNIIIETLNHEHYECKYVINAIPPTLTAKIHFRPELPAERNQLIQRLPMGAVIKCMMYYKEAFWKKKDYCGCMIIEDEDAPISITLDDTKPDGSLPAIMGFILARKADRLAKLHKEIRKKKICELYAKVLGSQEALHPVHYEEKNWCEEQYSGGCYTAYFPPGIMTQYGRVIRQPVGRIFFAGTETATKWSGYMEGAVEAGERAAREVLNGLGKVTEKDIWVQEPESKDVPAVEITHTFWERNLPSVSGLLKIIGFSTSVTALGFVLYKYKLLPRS

Target: Amine oxidase [flavin-containing] A (Homo sapiens, UniProt P21397)
Test: Inhibition of human recombinant MAOA using kynuramine substrate incubated for 20 mins by fluorescence spectrophotometry
Type: toxicity

C#CCN(C)Cc1ccccc1 [PARGYLINE]
IC50: 15.6 µM
